Amino acid sequences for entries named in this document (tags omitted). Residues count along the entry.
UniProt P06280, 32-429 N215S: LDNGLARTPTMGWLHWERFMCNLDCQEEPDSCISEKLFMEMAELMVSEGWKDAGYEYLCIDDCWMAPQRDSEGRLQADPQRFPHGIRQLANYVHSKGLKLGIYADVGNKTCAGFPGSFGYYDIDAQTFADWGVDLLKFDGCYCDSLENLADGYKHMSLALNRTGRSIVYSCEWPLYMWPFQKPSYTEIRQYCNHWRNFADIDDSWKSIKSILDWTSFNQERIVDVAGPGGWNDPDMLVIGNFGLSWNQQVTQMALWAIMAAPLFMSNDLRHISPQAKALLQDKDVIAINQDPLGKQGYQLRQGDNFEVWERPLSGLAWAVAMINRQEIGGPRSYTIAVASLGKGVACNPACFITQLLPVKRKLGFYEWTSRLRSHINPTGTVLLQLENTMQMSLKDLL

According to patent US10995067B2, “Treatment of Fabry disease” (Academia Sinica, priority 2016, dated 2021):

Molecular target: mutant α-Gal A in N215S lymphocytes (Homo sapiens, UniProt P06280, N215S)
Conditions: 0-50 μM for 4 days, then chase 0, 2 or 4 days without compound; FIG. 6

OC[C@H]1NC[C@H](O)[C@@H](O)[C@H]1O [DGJ]
durability of chaperoning: enzyme activity after removal of compound: dramatically decreased after 4 days
